Where two headings read alike, the source gives them in different places. Ends that are not written are not given here.

One test relates to E. coli MG1655. In kind it is cell-based, Escherichia coli. The following applies: 4 hours.
In test [1] the test system is E. coli stress response genes (strain MG1655). Briefly: Relative gene expression of stress response genes by quantitative real-time PCR. In kind it is cell-based, Escherichia coli. The protocol:
Preparation of each of the six treatments and the control samples was carried out by two operators on three consecutive days, thereby comprising three biological replicates for each of the six experimental and one control groups. To obtain the starting material for the experiment, a fresh bacterial culture was grown from a glycerol stock on Mueller-Hinton (MH) agar plates at 37°C for 18–24 hours. One well-isolated colony per biological replicate was used to inoculate 2 ml of liquid MH (Sigma) in a 10 ml sterile polypropylene tube and incubated at 37°C for 16 hours with mild shaking. The overnight (ON) culture was then diluted 1∶100 in MH, subdivided into seven 10 ml aliquots and incubated in 50 ml-Falcon tubes at 37°C for 2.5 hours at 220 rpm. When the OD600 of bacterial cultures reached 0.5–0.7, respective antibiotics and AMPs were added to a concentration to match with those used in the mutagenesis experiments. These bacterial cultures were incubated for 20 minutes at 37°C with gentle shaking. Two ml of bacterial cultures from each treatment and the control were collected, immediately centrifuged at 10000 g for 2 minutes and the supernatant was removed to stop the treatment. The bacterial pellet was then resuspended in 1 ml MH, followed by an addition of 1 ml of RNAprotect Bacteria Reagent (Qiagen), 5 minutes incubation and centrifugation at 10000 g for 2 minutes at room temperature. The supernatant was discarded and the bacterial pellet was immediately frozen and stored at −80°C until RNA extraction.
Total RNA was isolated using RNeasy kit (Qiagen) according to the manufacturer's instructions and eluted in 50 µl of RNase-free water. The nucleic acid yield and purity were determined by measuring the optical density at A260/280 using a Nanodrop spectrophotometer (Thermo Scientific). RNA samples were treated with TURBO DNase (Life Technologies). Briefly, ten µg of RNA were used in a total volume of 500 µl containing 20 units of TURBO DNase, incubated for 30 minutes at 37°C, immediately followed by RNeasy (Qiagen) cleanup and elution in 30 µl of RNase-free water. Following DNase treatment, RNA integrity was assessed using Agilent RNA 6000 Nano kit and 2100 Bioanalyzer instrument (both Agilent Technologies).
High-Capacity cDNA Reverse Transcription Kit with RNase Inhibitor (Applied Biosystems) was used for cDNA synthesis. Initially, to ensure linear conversion of the transcripts, the dynamic range of reverse transcription reaction was tested by performing a standard curve with cDNA, synthesised using various input amounts of pooled RNA. Total RNA (250 ng per reaction) and random primers were used for cDNA synthesis. To obtain sufficient amount of cDNA, several batches of 20 µl RT reactions were pooled, diluted 50-fold with RNase-free water and stored in single-use aliquots at −80°C until further use. All 21 samples were tested for presence of contaminating genomic DNA by running the mdoG assay with cDNA and the respective no reverse transcription (−RT) controls.
Escherichia coli strain K-12 substrain MG1655 complete genome (accession U00096) sequence was downloaded from NCBI database (www.ncbi.nlm.nih.gov) and used for primer design. Target sequence accession number, location of the amplicon, amplicon length and primer sequences for each assay can be found in table S2. Primers were designed using Primer Express software (Applied Biosystems) and optimized for annealing temperature of 60°C. Each primer pair and amplicon were checked for secondary structure formation using Oligo Tool (Integrated DNA technologies, http://eu.idtdna.com/analyzer/Applications/OligoAnalyzer/).

Where [2] appears, read: qPCR, 20 minutes exposure vs non-treated bacteria, REST 2009 randomisation test.

“GIGKFLKKAKKFGKAFVKILKK-NH2 (C-terminus assumed) [Pexiganan]”: the MIC50 against E. coli MG1655 (50% reduction of CFUs vs control, Mueller Hinton Broth, 37°C, five replicates, repeated twice) was 1.6 µg/mL. In addition, in the test with E. coli MG1655 (unit as printed in legend of Figure 1), the MIC50 came out at 1.6 µg. In addition, in test [1], the “fold upregulation, marR” value stood at 4.05 fold; the “fold upregulation, phoP” value came to 3.07 fold; the “fold upregulation, phoQ” value turned out to be 2.45 fold.
On to `CC1(C)S[C@@H]2[C@H](NC(=O)[C@H](N)c3ccccc3)C(=O)N2[C@H]1C(=O)O` [Ampicillin], for which, in test [1] (setting [2]), the “Result, recA” value is on record as “NDE”; the “Result, rpoS” value is reported as “UP (1.3-fold)”; the “Result, umuC” value is “UP (1.37-fold)”.

Source of the values: paper PMC4192597, “Antimicrobials, Stress and Mutagenesis” (PLoS Pathogens, 2014).
